Data published in patent US8541175B2, “Detection of molecular interactions using a reduced affinity enzyme complementation reporter system” (The Board of Trustees of the Leland Stanford Junior …, priority 2006, dated 2013).

Test system: EGFR on the cell surface
Assay: EGFR internalization by flow cytometry, C2C12 cells overexpressing wild-type EGFR and ErbB2
Assay type: cell-based
Details: 5 ug/ml antibody 10 min prior to EGF
From the text: To test this hypothesis, the wildtype EGFR and wildtype ErbB2 were co-expressed in cells and EGFR on the cell surface was quantitated by flow cytometry (FIG. 7B).
Isoproterenol, propranolol and rapamycin were from Sigma.

Herceptin: monoclonal antibody against ErbB2, binds the juxtamembrane domain of ErbB2
EGFR on the cell surface upon EGF treatment: rapid loss of EGFR from the cell surface
